From publication PMC6645225 (ACS Omega, 2018) come the findings set out here.

The target in the data set is T1, CYP1A1 (Homo sapiens, UniProt P04798).
T1 sequence (P04798 1-512): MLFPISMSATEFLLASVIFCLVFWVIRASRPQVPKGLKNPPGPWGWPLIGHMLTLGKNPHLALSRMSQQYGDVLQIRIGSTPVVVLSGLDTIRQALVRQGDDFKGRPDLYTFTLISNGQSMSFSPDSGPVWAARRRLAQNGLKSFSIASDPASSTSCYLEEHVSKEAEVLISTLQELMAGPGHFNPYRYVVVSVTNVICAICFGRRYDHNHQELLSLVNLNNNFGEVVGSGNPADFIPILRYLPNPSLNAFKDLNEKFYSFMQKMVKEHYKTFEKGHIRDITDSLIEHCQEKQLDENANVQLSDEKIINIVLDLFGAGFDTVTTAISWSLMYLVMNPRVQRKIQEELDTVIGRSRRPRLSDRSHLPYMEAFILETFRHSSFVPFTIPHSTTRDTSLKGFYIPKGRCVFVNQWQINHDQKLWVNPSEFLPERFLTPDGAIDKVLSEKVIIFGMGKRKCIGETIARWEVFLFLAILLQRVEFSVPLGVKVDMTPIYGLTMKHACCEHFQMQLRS
Nature of the data set: CYP1A1 inhibition in live HEK293 cells overexpressing CYP1A1. The data set is classed as cell-based. The following applies: live HEK293 cells overexpressing CYP1A1, % inhibition of CYP1A1 at 10 μM (Mean ± SD) HEK293 cells.

`COc1c2occc2c(OC)c2c(=O)cc(C)oc12` [compound 1, Khellin, reference compound]: the inhibition (as a rule, the change of the read-out against control, counted positive when it falls) at 10 µM amounted to 81%.
